Target: T1, β-amyloid 1-40 (Homo sapiens, UniProt P05067)
T1 construct: Beta-amyloid 1-40 (Aβ) and biotin-labeled β-amyloid 1-40 peptides were purchased from Biosource; purchased Biosource (Camarillo, Calif.)
Assay: TRF aggregation assay for β-amyloid polypeptide aggregation
Format: biochemical
Details: 50 ug/ml β-amyloid, 24 uM test compound, 2% DMSO, 37° C. for 24 hrs
Description: Beta-amyloid 1-40 (Aβ) and biotin-labeled β-amyloid 1-40 peptides were purchased from Biosource (Camarillo, Calif.). β-amyloid and biotinylated amyloid stock solutions, diluted in 0.1% acetic acid and corrected for 80% peptide content, were diluted to 83 μg/ml and 42 μg/ml, respectively, in reaction buffer (Dulbecco's PBS pH 7.4, 0.02% Tween 20). An equal mixture of the two β-amyloid products was then brought to a final concentration of 62.5 μg/ml total β-amyloid, giving a final 2:1 ratio of unbiotinylated to biotinylated Aβ polypeptide. When analyzing aggregation in the presence of test compound, 5 ul of diluted test compound (120 uM in 10% DMSO) was added to each well being analyzed in a 384-well polystyrene plate (Nunc). Test compounds are added over a range of concentrations. Twenty microliters of the β-amyloid reaction mixture was dispensed into each well of the 384 well plate, giving the final assay conditions as 24 uM test compound, 2% DMSO, and 50 ug/ml β-amyloid in a final volume of 25 uL. Plates were then sealed with foil sealers (Corning), and incubated at 37° C. for 24 hrs. […] Plates were washed with reaction buffer and 75 uL of DELFIA Enhancement solution (Wallac) was added to each well and the plates read on TRF capable plate reader (excitation at 337 run and emission at 620 nm).

Amino acid sequences for entries named in this document (tags omitted). Residues count along the entry.
UniProt P05067, 672-711 limits assumed: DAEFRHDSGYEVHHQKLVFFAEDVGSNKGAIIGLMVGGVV

Substance: ApoE3: known Aβ aggregation inhibitor
- prevents Aβ aggregation: 75%

Reference: patent US6846640B2, “Time-resolved fluorescence assay for the detection of multimeric forms of A-beta 1-40” (Pharmacia & Upjohn Company, priority 2002, dated 2005)
